Screening data (PubChem)
In the library only some 13% were active in any assay of this set; here they are far more common.
Lamin A splicing – changes lamin A minigene splicing in HeLa cells | HeLa LMNA splicing GFP/RFP minigene ratio, 48 h | Potency, µM (titrated, usually from 46.1 µM), usual class: inhibitors | 0.01% of 200,000 active; active means well fitted inhibition curve with a large enough effect in the signal ratio, with a control signal flat, not every such curve was filed as active; inconclusive means small, poorly fitted or top-dose-only effect, or effect the other way, or a change in a side signal; the % refers to the signal ratio
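S3 HeLa stable clones carrying a lamin A-EGFP splicing minigene plus DsRed2 were seeded at 600 cells/well in Opti-MEM with 2% FBS, pin-dosed and incubated 48 h at 37°C. Acumen cytometry (488 nm) gave the GFP/RFP total-intensity ratio.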
miR-21 reporter – raises the signal of a miR-21 reporter; 340,000 tested, under 10 active; HeLa miR-21 FLuc reporter, luciferase, 48 h; Potency, µM (highest dose often 38.3 µM); active = well fitted rising curve with a large enough effect; inconclusive = small, poorly fitted or top-dose-only effect; inactive = no such curve, though single readings can be large or run the other way;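 also: miR-21 action dims this reporter so a rising signal means less miR-21 action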
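Luminescence from a firefly luciferase reporter carrying a miR-21 binding site downstream, stably expressed under a CMV promoter in HeLa cells that make miR-21 endogenously, reports miRNA modulation after 48 h compound exposure up to approximately 40uM final.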
ALDH1A1 inh – ALDH1A1 (human) enzyme inhibition. P00352. Purified ALDH1A1, NADH fluorescence, propionaldehyde substrate. Potency, µM (series often up to 75.3 µM), most hits filed as inhibitors. 7.3% of 220,000 active. AID 1030; active means well fitted inhibition curve with a large enough effect, not every such curve was filed as active; inconclusive means small, poorly fitted or top-dose-only effect, or another doubt; inactive means no such curve, though single readings can be large or run the other way
G9a block – blocks human histone lysine methyltransferase G9a. 8.8% of 350,000 active. G9a H3K9 monomethylation, AlphaScreen, 2 h. AID 504332. Potency, µM (titrated, usually from 102 µM), usual class: inhibitors. Q96KQ7; further: nearly all actives have a fitted effect of over 75% in size
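Methyltransferase reactions run at room temperature for 2 h (20 nM enzyme, 500 nM biotin-H3K9 peptide, 20 uM SAM) after a 15 min compound preincubation; product detected by AlphaScreen beads and anti-H3K9me1 antibody.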
Sfp inh – inhibitors of Bacillus subtilis Sfp phosphopantetheinyl transferase; Potency, µM, actives largely listed as inhibitors; Q9F4F7; Biochemical Sfp PPTase activity, qHTS; 3.5% of 310,000 active;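 further: the enzyme is Sfp with the accession as filed and its product quenches rhodamine fluorescence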
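Reaction rates are the 30-min fluorescence difference (ex 525, em 598 nm) in wells containing 15 nM Sfp, 5 uM rhodamine-CoA and 12.5 uM BHQ-2-YbbR at pH 7.6 with 10 mM MgCl2.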
JMJD2E inh – inhibitors of human JMJD2E histone demethylase; B2RXH2; JMJD2E catalytic domain, FDH-coupled NADH fluorescence (FDH is formaldehyde dehydrogenase); Potency, µM (top dose mostly 57.1 µM), usual class: inhibitors; 1.6% of 230,000 active; active means well fitted inhibition curve with a large enough effect, not every such curve was filed as active; inconclusive means small, poorly fitted or top-dose-only effect, or another doubt; inactive means no such curve, though single readings can be large or run the other way; further: nearly all actives have a fitted effect of over 50% in size
Numbers stand for hits; n = inactive; u = inconclusive; x = not tested or not shown; [ ] = another dose, or the depositor's remark. Unless noted, the call rests on the fitted dose curve; in most records, active means well fitted curve in the direction sought with a large enough effect; inconclusive means small, poorly fitted or top-dose-only effect, or another doubt; inactive means no such curve, though single readings can be large; an effect the other way counts as inactive or inconclusive.

SMILES	Lamin A splicing	miR-21 reporter	ALDH1A1 inh	G9a block	Sfp inh	JMJD2E inh
CCc1c(C2(O)CCCCC2)[nH]c2ccc(C(F)(F)F)cc12	x	n	x	x	n	x
O=S(=O)(Nc1nc2ccccc2nc1Nc1cccc(S(=O)(=O)N2CCCCC2)c1)c1ccccc1	u	n	u	u	n	u
CCS(=O)(=O)Nc1cccc(-c2nc3cccnc3s2)c1	x	n	x	x	n	n
CCS(=O)(=O)Nc1cc(-c2nc3cccnc3s2)ccc1C	n	n	u	50µM	n	u
C[N+]12CCCCC1[C@@H](CO)CCC2 (stereo partly drawn)	x	n	x	50µM	n	n
C=C(C)C(=O)OC[C@@H]1CCC[N@+]2(C)CCCCC12 (stereo partly drawn)	x	x	n	x	n	n
CCC(CO)n1c(SCc2cc(=O)oc3cc(C)ccc23)nc2ccccc2c1=O (stereo not drawn)	n	n	4.5µM	u	n	n
COc1ccccc1-n1c(SCc2cc(=O)oc3cc(O)ccc23)nc2ccccc2c1=O	n	n	n	n	n	u
NC(=S)NN=C1c2cc(S(=O)(=O)N3CCOCC3)ccc2-c2ccc(S(=O)(=O)N3CCOCC3)cc21	n	n	n	n	n	n
CN(C)N=C1c2cc(S(=O)(=O)N3CCOCC3)ccc2-c2ccc(S(=O)(=O)N3CCOCC3)cc21	n	n	n	20µM	n	n
CNc1ncnc2c1ncn2[C@@H]1O[C@H](CO)[C@H](O)[C@H]1O	u	x	n	n[12.7 µM]	x	n
CN(C)S(=O)(=O)c1ccc(=S)[nH]c1	n	n	1µM	1.4µM	u	n
CC(=O)C1=C(O)C(=O)N(c2cccc(Br)c2)C1c1ccccc1Cl (stereo not drawn)	x	n	x	x	n	x
O=C(C1CC1)N(Cc1ccco1)c1nc(-c2ccccc2)cs1	u	n	6.3µM	u	u	n
CC1=C(SCCC#N)S/C(=C2\SC(C)=C(SCCC#N)S2)S1	n	n	5µM	1.3µM	7.9µM	n
COc1cc(C(=O)Nc2ccc(S(=O)(=O)N3CCOCC3)cc2)c([N+](=O)[O-])cc1OC	x	n	n	n	n	n
CSc1ccccc1N=Cc1nc(-c2ccccc2)oc1O	n	n	5µM	n	n	n
Cc1cccc(/N=C/c2nc(-c3ccccc3Br)oc2O)n1	x	n	3.5µM	n	n	n
Cc1ccnc(N=Cc2nc(-c3ccccc3Br)oc2O)c1	x	n	4µM	n	n	u
Oc1oc(-c2cccc3ccccc23)nc1/C=N/c1nccs1	n	n	n	u	n	n
COc1ccccc1CN1C(=O)[C@@H]2C(CC(N)=O)NC3(C(=O)Nc4c3ccc(Cl)c4C)[C@@H]2C1=O (stereo partly drawn)	n	n	u	n	n	n
CCc1cccc2c1NC(=O)[C@]21[C@@H]2C(=O)N(Cc3ccccc3)C(=O)[C@@H]2[C@@H]2CCCN21	n	n	u	45µM	n	n
O=C1C2C3CCC(C3)C2C(=O)N1Cc1ccccc1 (stereo not drawn)	n	n	n	n	n	n
Cc1c(Cl)ccc2c1NC(=O)[C@]21[C@@H]2C(=O)N(Cc3ccccc3)C(=O)[C@@H]2[C@@H]2CCCN21	n	n	2.8µM	45µM	n	n
CCOc1ccc(C(=O)CCC(=O)NCC(=O)Nc2c(C)cccc2C)cc1	x	x	x	n[2.33 µM]	x	x
SMILES	Lamin A splicing	miR-21 reporter	ALDH1A1 inh	G9a block	Sfp inh	JMJD2E inh
Cc1cccc(N2CC(c3nc4ccccc4n3CCC3CCCCC3)CC2=O)c1 (stereo not drawn)	x	n	x	u	x	x
Cc1nc2[nH]c(=S)n(C)c(=O)c2nc1C	u	n	n	45µM	u	n
COC(=O)c1ccccc1NC(=O)c1nc(SCc2ccccc2C)ncc1Cl	x	n	x	n	x	x
COc1ccc(/C=C2\SC(N3CCc4ccccc4C3)=NC2=O)cc1OC	n	n	n	13µM	n	n
CCOc1ccc(-n2cc(-c3ccccc3)c3c(NCCc4ccccc4)ncnc32)cc1	n	n	x	n	x	x
Cc1ccc(N2C(=O)CC(Sc3nc4ccccc4o3)C2=O)cc1Cl (stereo not drawn)	u	u	1.4µM	11µM	50µM	n
O=C(NCc1ccc(F)cc1)C1CC(=O)N(C2CCCCC2)C1 (stereo not drawn)	x	n	x	n	n	x
Cc1ccc2c(c1)N(CC(=O)NCCC1=CCCCC1)C(=O)c1cccnc1O2	x	n	x	x	n	x
CCN(CC)S(=O)(=O)c1ccc(NS(=O)(=O)c2ccc(F)cc2)cc1	u	n	13µM	n	n	n
O=S(=O)(Nc1ccc(-n2cccc2)cc1)c1ccc(F)cc1	x	n	10µM	50µM	n	n
O=S(=O)(Nc1ccc(-n2cccc2)cc1)c1ccc(Cl)c(Cl)c1	u	n	u	u	n	n
Nc1ccc(-n2nncc2-c2ccc(Cl)cc2)cc1	n	n	u	7.1µM	n	n
CN(CC(=O)NCCc1ccc(Cl)cc1)S(=O)(=O)c1ccc2c(c1)c(=O)n(C)c(=O)n2C	n	n	n	n	n	n
CN(CC(=O)NCCC1=CCCCC1)S(=O)(=O)c1ccc2c(c1)c(=O)n(C)c(=O)n2C	n	n	32µM	n	n	n
CCOC(=O)c1cnc2c(C)cc(C)cc2c1Nc1cccc(C(=O)O)c1	x	n	x	n	x	x
Cc1ccc2c(c1)C(c1ccccc1)N(C(=O)c1ccccc1F)CC(=O)N2 (stereo not drawn)	x	n	x	n	x	x
CN(C)S(=O)(=O)c1ccc(C(=O)N2CCC(c3nc4ccccc4o3)CC2)cc1	n	n	28µM	n[12.7 µM]	n	n
O=C(c1ccccc1)N1CCC(c2nc3ccccc3o2)CC1	u	n	x	n	x	x
CCCc1cc2c(n1CCc1ccc(Cl)cc1)C(C)C1CN(C(=O)c3ccccc3)C(C)(C(=O)OC)C21 (stereo not drawn)	x	x	n	x	n	u
Cc1ccc(S(=O)(=O)NC(C)(C)CSc2ncccn2)cc1	x	n	18µM	n[12.7 µM]	n	n
Cc1ccc(S(=O)(=O)NCCSc2ncccn2)cc1	x	n	n	x	n	n
COc1ccc(N2CCN(C(=O)COC(=O)c3cccc(S(=O)(=O)Nc4cccc(C)c4)c3)CC2)cc1	x	x	x	10µM	x	x
O=C(OCC(=O)N1CCN(C(=O)c2ccco2)CC1)c1cc(S(=O)(=O)Nc2ccc(Cl)cc2)ccc1O	n	n	14µM	u	n	u
COc1ccc(NS(=O)(=O)c2ccc(C(=O)N3CCN(Cc4ccccc4)CC3)cc2)cc1	x	n	3.2µM	n	n	n
CCN1CCN(C(=O)c2ccc(S(=O)(=O)Nc3ccccc3)cc2)CC1	x	x	x	n[12.7 µM]	x	x
COc1ccc(C(=O)N2CCN(c3ccc(NC(=O)Cc4ccccc4)cc3)CC2)cc1	x	n	x	x	n	x
O=C(OCC(=O)N1CCCCC1)c1cccc(NS(=O)(=O)c2ccccc2)c1	x	x	x	n	x	x
COc1ccc(N2CCN(C(=O)c3ccc(NS(=O)(=O)c4ccccc4)cc3)CC2)cc1	u	n	n	20µM	n	n
